Our source for the SERT/DAT Selectivity values is US6677338B2, “Serotonin transport inhibitors” (President and Fellows of Harvard College, priority 1997, dated 2004).

Protein sequences, listed by entry. Tags and fused reporters are not part of them.
UniProt Q9MYX0, whole entry: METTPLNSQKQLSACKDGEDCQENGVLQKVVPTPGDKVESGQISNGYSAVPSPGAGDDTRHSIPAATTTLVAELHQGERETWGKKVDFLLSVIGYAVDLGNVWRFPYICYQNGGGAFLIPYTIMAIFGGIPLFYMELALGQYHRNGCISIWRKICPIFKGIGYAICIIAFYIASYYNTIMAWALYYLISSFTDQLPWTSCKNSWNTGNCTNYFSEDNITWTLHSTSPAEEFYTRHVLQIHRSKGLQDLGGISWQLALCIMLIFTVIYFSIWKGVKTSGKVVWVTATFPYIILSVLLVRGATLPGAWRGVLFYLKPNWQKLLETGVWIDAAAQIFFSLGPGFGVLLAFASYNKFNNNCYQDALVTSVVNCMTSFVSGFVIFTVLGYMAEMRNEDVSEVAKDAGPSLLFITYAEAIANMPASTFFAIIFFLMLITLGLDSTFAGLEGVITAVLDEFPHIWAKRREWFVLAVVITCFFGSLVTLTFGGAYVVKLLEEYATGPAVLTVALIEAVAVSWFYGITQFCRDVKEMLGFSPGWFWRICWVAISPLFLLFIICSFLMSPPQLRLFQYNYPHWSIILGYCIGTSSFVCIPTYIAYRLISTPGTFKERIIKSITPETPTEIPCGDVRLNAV

In this assay the target is Serotonin transporter (SERT) (Macaca mulatta, UniProt Q9MYX0). Description: (3H)citalopram competition binding in monkey striatum homogenates. The conditions noted are these: fold selectivity for serotonin over dopamine transporter.

With `COC(=O)C1C(c2ccc(Cl)c(Cl)c2)CC2CCC1N2C` (stereo not shown), the SERT/DAT Selectivity stood at 0.4.
